HCMV NEC inh: disrupts HCMV UL50-UL53 complex binding; HTRF UL50-UL53 interaction, normalized percent inhibition; inhibition, % (test concentration not listed); 0.15% of 190,000 active; in the data active means inhibition above about 27%, passing the limit was not always enough
GIV-Gai inh: inhibitors of GIV GBA-motif binding to rat Galpha-i3; P08753; Galpha-i3/FITC-GIV peptide fluorescence polarization, 90 min; active compounds read low; scaled: aluminum fluoride 0%, vehicle 100%; percent of control (FP), % (concentration not given with the values); 210,000 compounds, 0.42% hits; AID 1224905;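 active means replicate mean at 85% of control or lower, very high polarization wells dropped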;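 further: wells of about 15 µL received 100 nL stock; the first replicate is given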
GIV Gai FP conf: confirmation of inhibitors of GIV binding to rat Galpha-i3; shares compounds with GIV-Gai inh; FITC-GIV peptide binding to Galphai3, fluorescence polarization; hits give low values; fluorescence polarization, mP at 100 µM; 38% of 580 active; AID 1259350;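 active means inhibition score of 15 or more, meaning 100 minus mean polarization as percent of control over three replicates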;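 further: lower mP means peptide displaced from Galphai3 so more inhibition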
GIV-Gai AS conf: confirmation of inhibitors of GIV binding to human Galpha-i3; AlphaScreen counts at 100 µM; shares compounds with GIV-Gai inh; 39% of 580 active; AlphaScreen Galphai3-GIV binding, purified proteins, 90 min; hits give low values;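 active means inhibition score at or above a set limit, where the score is 100 minus the three-replicate mean percent of control signal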
Active calls of the source: *; nt = no result. This is a sample that favours compounds with a hit; in the whole collection about 0.46% have one here.

Key to letters – A = HCMV NEC inh; B = GIV-Gai inh; C = GIV Gai FP conf; D = GIV-Gai AS conf
> CN1C(=O)C(=Cc2cn(CC(=O)N3CCCC3)c3ccccc23)C(=O)N(C)C1=O
  A = nt | B = 103.2 | C = nt | D = nt
> Cc1ccc(S(=O)(=O)N=P(Oc2ccccc2)(c2ccc(C)o2)C(C)(C)C)cc1 (centres undefined)
  A = 15.7 | B = nt | C = nt | D = nt
> CCS(=O)(=O)Nc1cccc(C(=C2CCCCC2)c2cnc[nH]2)c1
  A = -25.2 | B = 86.9 | C = 77.4 | D = 6784*
> CCCN(CCCN)N(O)N=O
  A = -7.4 | B = nt | C = nt | D = nt
> COc1cc(/C=C2\C(=O)NC(=O)N(c3ccccc3)C2=O)c([N+](=O)[O-])cc1OC
  A = nt | B = 110.7 | C = nt | D = nt
> COc1cc(C=C2C(=O)NC(=O)NC2=O)ccc1OS(=O)(=O)c1ccccc1[N+](=O)[O-]
  A = 51.2* | B = 70.8* | C = 58.1 | D = 54298
> CCCCn1c(=O)c(C(=O)Nc2cccc(Br)c2)c(O)c2ccccc21
  A = nt | B = 111.4 | C = nt | D = nt
> Cc1oc(-c2cccs2)nc1CN1C(=O)CN=C(c2ccccc2)c2ccccc21
  A = nt | B = 101.7 | C = nt | D = nt
> CC[N+](CC)=c1ccc2ccc(O)cc2o1
  A = -31.0 | B = 63.0* | C = 43* | D = 33013*
> CC1c2cccn2-c2ccccc2CN1C(=O)Nc1cccc(Br)c1 (centres undefined)
  A = 1.4 | B = 105.1 | C = nt | D = nt
> Cc1ccccc1NC1=NCCS1
  A = -28.7 | B = nt | C = nt | D = nt
> c1ccc2c(NC3=NCCS3)cccc2c1
  A = 17.8 | B = 83.4* | C = 60.6 | D = 35407*
> CN(C)CCOC(=O)C1(C#N)CC2c3ccccc3C1c1ccccc12 (centres undefined)
  A = -8.5 | B = nt | C = nt | D = nt
> CCn1nc(-c2cccnc2)nc2c(=O)n(C)c(=O)nc1-2
  A = 70.8 | B = 46.0* | C = 39.5* | D = 42657
> CCN(CC)C(=O)c1ccc(NC(=O)Cn2nc(-c3ccccc3)c3ccccc3c2=O)cc1
  A = 4.1 | B = 107.1 | C = nt | D = nt
> CCn1nc(-c2ccccc2)nc2c(=O)n(C)c(=O)nc1-2
  A = 88.3* | B = 18.6* | C = 16.3* | D = 24179
> O=C(O)C1C2c3ccccc3C(c3ccccc32)C1C(=O)NCc1ccccc1 (centres undefined)
  A = nt | B = 112.9 | C = nt | D = nt
> COC1CCC(OC2C[C@H]([C@]3(C)CC[C@]4(CC(O)C(C)[C@@H](C(C)C=C(C)C(=O)C(C)CC(C)C(=O)O)O4)O3)O[C@]3(O[C@@H]([C@H]4O[C@@](O)(CO)C(C)CC4C)CC3C)C2C)OC1C (some centres undefined)
  A = 3.9 | B = nt | C = nt | D = nt
> CCOC(=O)Cc1csc(NC(=O)c2c(O)c3c(n(Cc4ccco4)c2=O)CCCC3)n1
  A = nt | B = 111.5 | C = nt | D = nt
> CCOC(=O)N(c1ccccc1)P1(=S)OCC(C)(C)CO1
  A = nt | B = 111.4 | C = nt | D = nt
> Cc1ccc2c(c1)C1CN(C)CCC1N2C(=O)c1ccc(Br)cc1 (centres undefined)
  A = -11.1 | B = nt | C = nt | D = nt
> CN1C(=O)C(=C/C=C/c2ccccc2)C(=O)N(C)C1=O
  A = 8.8 | B = 80.9* | C = 73.8 | D = 6725*
> C=CCN1C(=O)NC(=O)/C(=C/C=C/c2ccccc2)C1=O
  A = 4.1 | B = 154.8 | C = nt | D = nt
> CCNc1nc2c(=O)[nH]sc2c2c1C(c1cccnc1)C(C#N)=C(N)O2 (centres undefined)
  A = -34.6 | B = 105.4 | C = nt | D = nt
> COc1cc2c(no[n+]2[O-])n2nnnc12
  A = -95.7 | B = 79.8* | C = 68.1 | D = 11443*

The listing continues.
Key to letters – A = HCMV NEC inh; B = GIV-Gai inh; C = GIV Gai FP conf; D = GIV-Gai AS conf
> COC(=O)CC1=C(C(=O)OC)C2(C(=O)Nc3ccc(F)cc32)C(C#N)=C(N)O1 (centres undefined)
  A = -9.5 | B = 99.5 | C = nt | D = nt
> O=C1NC(=O)C(=Cc2ccccc2)C(=O)N1
  A = 99.1* | B = 28.9* | C = 31.6* | D = 27826*
> O=C1NC(=O)N(c2ccccc2)C(=O)/C1=C/c1ccccc1
  A = 6.1 | B = 96.9 | C = nt | D = nt
> CC(C)c1ccc(C=C2C(=O)NC(=O)NC2=O)cc1
  A = nt | B = 32.3* | C = 28* | D = 33706
> O=C1NC(=O)C(=Cc2ccc(N3CCOCC3)cc2)C(=O)N1
  A = -1.6 | B = 102.0 | C = nt | D = nt
> c1cc(N2CCNCC2)c2cnccc2c1
  A = -18.2 | B = nt | C = nt | D = nt
> COc1ccccc1NC(=O)CN1CC=C(c2cnn(C)c2)CC1
  A = -42.2 | B = 103.7 | C = nt | D = nt
> O=P12CN3CN(CN(C3)C1)C2
  A = -5.6 | B = nt | C = nt | D = nt

Among those listed so far, 2 have a COOH group.
Key to letters – A = HCMV NEC inh; B = GIV-Gai inh; C = GIV Gai FP conf; D = GIV-Gai AS conf
> O=C(O)C1C2c3ccccc3C(c3ccccc32)C1C(=O)NCc1ccccc1 (centres undefined)
  A = nt | B = 112.9 | C = nt | D = nt
> COC1CCC(OC2C[C@H]([C@]3(C)CC[C@]4(CC(O)C(C)[C@@H](C(C)C=C(C)C(=O)C(C)CC(C)C(=O)O)O4)O3)O[C@]3(O[C@@H]([C@H]4O[C@@](O)(CO)C(C)CC4C)CC3C)C2C)OC1C (some centres undefined)
  A = 3.9 | B = nt | C = nt | D = nt

Compound activity as filed in PubChem BioAssay.
